Key:
[1] = molecular target: Kappa-type opioid receptor (Cavia porcellus, UniProt P41144); test: Inhibition of Opioid receptor kappa 1 binding
Summary of the method: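 Kappa opioid radioreceptor binding in guinea pig brain homogenate with 3 nM [3H]U69,593 as radioligand, incubated 2.5 h at 25°C. Library mixtures were screened at 4 μg/mL. Data were normalized to percent inhibition using background and total binding.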

[2] = molecular target: Kappa-type opioid receptor (Cavia porcellus) (UniProt P41144); test: Inhibitory activity for kappa opioid receptor

Row | Structure (SMILES) | IC50 [1] [µM] | IC50 [2] [µM]
1 | COc1ccc(C[C@H]2CN3C(=NC[C@@H]3C3CCCCC3)N2C(C)C23CC4CC(CC(C4)C2)C3)cc1 (some centres not stated) | 1.16 | 4.92
2 | COc1ccc(C[C@@H]2CN3C(=NC[C@@H]3C)N2CC2CCC(C)CC2)cc1 (some centres not stated) | – | 0.425
3 | COc1ccc(C[C@H]2CN3C(=NC[C@@H]3C3CCCCC3)N2CC2CCC(C)CC2)cc1 (some centres not stated) | – | 0.336
4 | COc1ccc(C[C@H]2CN3C(=NC[C@@H]3C)N2CCC2CC3CCC2C3)cc1 (some centres not stated) | 3.01 | 0.185
5 | COc1ccc(C[C@H]2CN3C(=NC[C@H]3C3CCCCC3)N2C(C)C23CC4CC(CC(C4)C2)C3)cc1 (some centres not stated) | – | > 10
6 | C[C@H]1CN=C2N(CCC3CC4CCC3C4)[C@@H](C3CCCCC3)CN21 (some centres not stated) | – | 4.42
7 | CC(C)C[C@@H]1CN2C(=NC[C@@H]2C)N1CC1CCC(C)CC1 (some centres not stated) | – | 6.48
8 | COc1ccc(C[C@H]2CN3C(=NC[C@@H]3C)N2C(C)C23CC4CC(CC(C4)C2)C3)cc1 (some centres not stated) | 3.75 | 1.52
9 | COc1ccc(C[C@@H]2CN3C(=NC[C@H]3C3CCCCC3)N2CC2CCC(C)CC2)cc1 (some centres not stated) | – | 0.362
10 | CC(C)C[C@@H]1CN2C(=NC[C@H]2C2CCCCC2)N1CCC1CC2CCC1C2 (some centres not stated) | – | 0.359
11 | COc1ccc(C[C@@H]2CN3C(=NC[C@H]3C3CCCCC3)N2C(C)C23CC4CC(CC(C4)C2)C3)cc1 (some centres not stated) | 3.18 | –
12 | COc1ccc(C[C@@H]2CN3C(=NC[C@@H]3C)N2C(C)C23CC4CC(CC(C4)C2)C3)cc1 (some centres not stated) | 2.21 | 0.238
13 | COc1ccc(C[C@H]2CN3C(=NC[C@@H]3C)N2CC2CCC(C)CC2)cc1 (some centres not stated) | 1.79 | 1.57
14 | COc1ccc(C[C@@H]2CN3C(=NC[C@@H]3C)N2CCC2CC3CCC2C3)cc1 (some centres not stated) | – | 0.085
15 | CC(C)C[C@@H]1CN2C(=NC[C@@H]2C2CCCCC2)N1CCC1CC2CCC1C2 (some centres not stated) | – | 0.827
16 | COc1ccc(C[C@H]2CN3C(=NC[C@H]3C3CCCCC3)N2CC2CCC(C)CC2)cc1 (some centres not stated) | 2.97 | 0.804
17 | CC1CCC(CN2C3=NC[C@@H](C4CCCCC4)N3C[C@@H]2C2CCCCC2)CC1 (some centres not stated) | – | 1.14
18 | COc1ccc(C[C@@H]2CN3C(=NC[C@@H]3C3CCCCC3)N2CC2CCC(C)CC2)cc1 (some centres not stated) | 2.33 | 0.369
19 | COc1ccc(C[C@@H]2CN3C(=NC[C@@H]3C3CCCCC3)N2C(C)C23CC4CC(CC(C4)C2)C3)cc1 (some centres not stated) | – | > 10
20 | CC1CCC(CN2C3=NC[C@H](C4CCCCC4)N3C[C@@H]2C2CCCCC2)CC1 (some centres not stated) | – | 0.365
